Measurements reported in PubChem BioAssay AID1259397 (Fisher Drug Discovery Resource Center, 2018).
Only a part is listed here, and it is no random draw. Some of these compounds have results that are not shown, active ones among them. Calls of active or inactive are those of the source.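 How the source made its calls: active means inhibition of cGAS enzyme activity at or above 60%; inactive means the rest.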

Protein sequences, listed by entry. Tags and fused reporters are not part of them.
UniProt Q8C6L5, whole entry: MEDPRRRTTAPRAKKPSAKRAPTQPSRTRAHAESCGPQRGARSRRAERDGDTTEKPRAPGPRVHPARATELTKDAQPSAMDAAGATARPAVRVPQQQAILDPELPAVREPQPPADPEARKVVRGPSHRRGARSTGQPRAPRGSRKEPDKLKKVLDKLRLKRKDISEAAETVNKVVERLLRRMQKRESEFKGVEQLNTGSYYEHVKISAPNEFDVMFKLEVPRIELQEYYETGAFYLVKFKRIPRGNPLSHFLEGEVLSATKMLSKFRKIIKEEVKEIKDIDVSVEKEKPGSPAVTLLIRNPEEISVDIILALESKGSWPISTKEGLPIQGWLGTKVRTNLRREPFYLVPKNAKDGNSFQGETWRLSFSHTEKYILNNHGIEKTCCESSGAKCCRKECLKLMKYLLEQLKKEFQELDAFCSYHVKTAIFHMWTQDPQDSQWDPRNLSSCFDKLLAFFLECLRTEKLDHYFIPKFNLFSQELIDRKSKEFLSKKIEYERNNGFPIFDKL

target: Cyclic GMP-AMP synthase (Mus musculus) (UniProt Q8C6L5); assay: inhibitors of Mus musculus cyclic GMP-AMP synthase, initial high-throughput assay, cell-free, RapidFire MS (AID 1259397); settings: recombinant mouse cGAS, cGAMP by RapidFire MS; at 12.5 µM; stronger effect = higher value;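 further: enzyme stimulated by 45 bp dsDNA with ATP and GTP substrates; cGAMP share of summed cGAMP plus half ATP and half GTP signals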

Row | Compound | inhibition
1 | CN(C)C1(CNC(=O)c2cc(Br)c(Br)s2)CCCCC1 | inactive: -6.54%
2 | N#CC(C#N)=Cc1ccc(Br)cc1 | inactive: 30.8%
